Experimental data: patent publication US20100173874A1, “Delivery of modulators of glutamate-mediated neurotransmission to the inner ear” (priority 2002, published 2010)
Read-outs that look alike come from different tables or passages of the source.

System: inner ear
Details: 120 dB SPL, 6 kHz, 30 min, 2 days after exposure
Experimental: Experiments were performed on adult guinea pigs weighing from about 250 g to 300 g. The animals were anaesthetized with urethane (1.4 g/kg, i.p.) and artificially respired. Supplemental doses of urethane (0.35 g/kg, i.p.) were administered every 2 hr, or more often if the animal withdrew its paw in response to pressure applied to the paw. The rectal temperature was maintained at about 38.5±1° C., and heart rate (normal range 260-330 beats/min) monitored using EKG electrodes. The external auditory canal was opened near the tympanic annulus, exposing the tympanic membrane and allowing sound to reach the drum without any obstruction. At the end of the experiment, the animals were euthanized by intracardiac injection of an overdose of sodium pentobarbitone.

Nc1nc2ccc(OC(F)(F)F)cc2s1 [Riluzole]
CAP threshold shift after noise trauma (protection) (100 μM applied into the cochlea): a clear recovery of threshold was observed | CAP threshold shift after noise trauma (protection) (100 μM applied onto the round window): The same effect was obtained
